This passage reports Ki results from ChEMBL document CHEMBL1142705, “Rational design, synthesis, and structure-activity relationships of aryltriazoles as novel corticotropin-releasing factor-1 receptor antagonists” (J Med Chem, 2005).

This assay concerns the target T1, Corticotropin-releasing factor receptor 1 (Homo sapiens, UniProt P34998).
T1 sequence (P34998 whole entry): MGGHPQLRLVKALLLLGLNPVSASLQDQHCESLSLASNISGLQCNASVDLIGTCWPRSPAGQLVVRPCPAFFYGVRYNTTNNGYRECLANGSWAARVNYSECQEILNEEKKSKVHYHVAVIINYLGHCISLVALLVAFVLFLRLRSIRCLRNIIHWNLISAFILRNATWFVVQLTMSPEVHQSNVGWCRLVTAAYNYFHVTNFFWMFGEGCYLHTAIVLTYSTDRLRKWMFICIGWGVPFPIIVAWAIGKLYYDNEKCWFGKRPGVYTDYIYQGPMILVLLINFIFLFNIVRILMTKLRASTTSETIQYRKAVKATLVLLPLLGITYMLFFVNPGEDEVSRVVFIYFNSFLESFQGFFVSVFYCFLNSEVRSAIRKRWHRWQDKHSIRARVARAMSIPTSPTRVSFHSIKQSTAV
Kind of assay: Inhibition of [125I][Tyr0]-sauvagine binding to human Corticotropin releasing factor receptor 1 expressed in mouse fibroblast Ltk- cells. It counts as cell-based.

In turn, `CCCN(c1n[nH]c(-c2ccc(Cl)cc2Cl)n1)C(C1CC1)C1CC1` displayed a Ki of 4500 nM.
In the case of `CCCCC(c1ccccc1)N(CCC)c1nc(-c2ccc(Cl)cc2OC)n(C)n1` (configuration not stated), the inhibition constant Ki turned out to be 6.8 nM.

Broadly, the Ki is the dissociation constant of the complex between target and ligand, obtained from inhibition or displacement. High values mean a looser hold on the target, low ones a stronger hold on the target.
